Reference: patent US6022880A, “Substituted pyridylamino indoles” (Hoechst Marion Roussel, Inc., priority 1997, dated 2000)
pIC50: −log10 of the molar value.

The molecules below were run on serotonin uptake, rat whole brain synaptosomes (assay: Inhibition of [3H]-Serotonin Uptake in Rat Whole Brain Synaptosomes). Settings: [3H]-5HT 50 nM, read-out: C: Inhibition of serotonin uptake, IC50.
Assay type: biochemical, rat (male Wistar)
Procedure: (C) Inhibition of [^3 H]-Serotonin Uptake in Rat Whole Brain Synaptosomes
A. Animals: Male CR Wistar Rats (100-125 g).
The final desired concentration of ^3 H-5HT in the assay is 50 nM. The dilution factor is 0.8.
5. For most assays, a 1 mM solution of the test compound is made up in suitable solvent and serially diluted such that the final concentration in the assay ranges from 2×10^-8 to 2×10^-5 M. Seven concentrations are used for each assay.
Male Wistar rats are decapitated and the brain rapidly removed. Whole brain minus cerebella is weighed and homogenized in 9 volumes of ice-cold 0.32 M sucrose using a Potter-Elvejhem homogenizer. Homogenization should be done with 4-5 up and down strokes at medium speeds to minimize synaptosome lysis. The homogenate is centrifuged at 1000 g for 10 min. at 0-4° C. The supernatant (S1) is decanted and is used for uptake experiments.
Tubes are incubated at 37° C. under a 95% O2 /5% CO2 atmosphere for 5 minutes. For each assay, 3 tubes are incubated with 20 μl of vehicle at 0° C. in an ice bath. After incubation all tubes are immediately centrifuged at 4000 g for 10 minutes. The supernatant fluid is aspirated and the pellets dissolved by adding 1 ml of solubilizer (Tritor. X-100+50% EtOH, 1:4 v/v). The tubes are vigorously vortexed, decanted into scintillation vials, and counted in 10 ml of Liquiscint scintillation counting cocktail. Active uptake is the difference between cpm at 37° C. and 0° C. The percent inhibition at each drug concentration is the mean of three determinations. IC50 values are derived from log-probit analysis.

SMILES	pIC50
CN(C)CCC=C1c2ccccc2CCc2ccccc21 [Amitriptyline, reference compound]	6.08
CN(C)CCCN1c2ccccc2CCc2ccc(Cl)cc21 [Chloripramine, reference compound]	6.82
CN1CCN(C2=Nc3cc(Cl)ccc3Nc3ccccc32)CC1 [Clozapine, reference compound]	< 4.70
